Test results as given in US5602176A, “Phenyl carbamate” (priority 1987, dated 1997).

Test system: deoxyglucose (DOG) utilisation in the brain
Experiment: Muscarinic and nicotinic effects on brain glucose utilisation (deoxyglucose autoradiography)
Assay type: in vivo, rat
Conditions: 7.5 μmol/kg p.o., initial 30 minutes
Description: Muscarinic and nicotinic effects on brain glucose utilisation
Changes in the functional activity of the CNS are associated with altered deoxyglucose (DOG) utilisation in the brain which can be visualised simultaneously in several brain regions using the autoradiographic method of Sokoloff et al., J. Neurochem. 28, 897 (1977). The administration of cholinergic drugs either direct (muscarinic agonists) or indirect (accumulation of acetylcholine) induces in this model a characteristic "fingerprint" pattern by modifying the regional glucose metabolism.
Male Wistar rats (150-200 g) are used. Drugs are administered at various doses and by different routes (i.v., p.o., i.p.) to animals. [14C]-2-deoxyglucose (125 μC/kg) is injected 45 min. before the animals are sacrificed. The brains are immediately excised, frozen at -80° C. and subsequently cut in slices with a thickness of 20 μm. The optical densities of the radiographic images are measured according to a modification of Sokoloff et al.

CCN(C)C(=O)Oc1cccc([C@H](C)N(C)C)c1 [Compound A, (S)-N-ethyl-3-[(1-dimethylamino)ethyl]-N-methyl-phenyl-carbamate]
effect on DOG utilisation, comparison: more potent than that of compound B
